Results from ChEMBL document CHEMBL4742400, “Protein kinase mkk4 inhibitors for promoting liver regeneration or reducing or preventing hepatocyte death” (2019).

Experiments:
Homo sapiens [1] = species on record: Homo sapiens; assay: Selectivity index, ratio of inhibition of full length human MKK7 (M1 to R419 residues) expressed in mammalian expression system assessed as residual percent of control binding at 100 nM relative to control to inhibition of partial length human MKK4 (S84 to D399 residues) expressed in mammalian expression system assessed as residual percent of control binding at 100 nM relative to control
Homo sapiens [2] = species on record: Homo sapiens; assay: Selectivity index, ratio of inhibition of B-raf (unknown origin) to inhibition of partial length human MKK4 (S84 to D399 residues) expressed in mammalian expression system assessed as residual percent of control binding at 100 nM relative to control
Homo sapiens [3] = species on record: Homo sapiens; assay: Selectivity index, ratio of inhibition of full length human JNK1 (M1 to Q384 residues) expressed in mammalian expression system assessed as residual percent of control binding at 100 nM relative to control to inhibition of partial length human MKK4 (S84 to D399 residues) expressed in mammalian expression system assessed as residual percent of control binding at 100 nM relative to control

Measured: Selectivity ratio

CCCS(=O)(=O)Nc1ccc(F)c(C(=O)Nc2n[nH]c3ncc(-c4ccc(Cl)cc4)cc23)c1F
< 3: all assays above

CCCS(=O)(=O)Nc1ccc(F)c(C(O)c2n[nH]c3ncc(-c4ccc(Cl)cc4)cc23)c1F (stereo unspecified)
< 3: all assays above
